miR-21 reporter: miR-21 reporter, rising signal | HeLa miR-21 FLuc reporter, luciferase, 48 h | Potency, µM (doses to about 38.3 µM), inactives show at the top dose reporter change, positive = more light | 340,000 tested, under 10 active | AID 2288; active = well fitted rising curve with a large enough effect; inconclusive = small, poorly fitted or top-dose-only effect; inactive = no such curve, though single readings can be large or run the other way;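 note: % of control where 0% means no effect; miR-21 action dims this reporter so a rising signal means less miR-21 action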
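HeLa miR-21-FLuc reporter line, endogenous miR-21; 2000 cells/well in DMEM/10% FBS; compound titration up to ~40uM final, 48 h, 37 degree Celsius; luciferase detection reagent, 15 min lysis, CCD luminescence.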
gsp antagonist: antagonists of gsp mutant (McCune-Albright syndrome); gsp-mutant cells, cAMP HTRF, 30 min; Potency, µM (top dose mostly 76.9 µM), for inactives: at the top dose activity change, negative = inhibition, most hits filed as inhibitors; hit rate 0.4% among 340,000; calls by dose curve; cell line not stated here;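 also: intracellular cAMP measured with PDE inhibitor Ro 20-1724 present during compound exposure; potency is read from the fitted curve at half-maximal effect; % is scaled to controls: 0 for no effect and ±100 for the full control effect; nearly all actives have a fitted effect of over 65% in size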
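Cells, 2000/well, grown 16–24 h in DMEM 10% FBS with 0.5 mg/ml G418, then compounds plus […] (300 uM addition stock), 30 min at 37C. cAMP read by HTRF (cAMP-d2 and anti-cAMP antibody-K in lysis buffer) after 30 min RT.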
Luc counter: Kinase-Glo luciferase inhibition (counter-screen); Potency, µM (doses to about 38.3 µM), without a hit: at the top dose activity change, negative = inhibition, usual class: inhibitors; Q27757; AID 1379; hit rate 0.28% among 200,000; Kinase-Glo luciferase, ATP luminescence, 8 min; also: potency is read from the fitted curve at half-maximal effect; % is scaled to controls: 0 for no effect and ±100 for the full control effect; nearly all actives have a fitted effect of over 60% in size
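Light output from Kinase-Glo luciferase with luciferin and 10 uM ATP in 50 mM imidazole pH 7.2, KCl, MgCl2, Tween 20, BSA; compound pin-delivered, 8-min ambient incubation, then luminescence read.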
gsp ag: agonists of gsp mutant (McCune-Albright syndrome); gsp mutant cells, cAMP HTRF, 30 min; Potency, µM (titrated, usually from 76.9 µM), inactives show top-dose activation (cAMP increase), usual class: activators; hit rate 0.13% among 340,000; active = well fitted activation curve with a large enough effect; inconclusive = small, poorly fitted or top-dose-only effect, or another doubt; inactive = no such curve, though single readings can be large or run the other way; cell line not stated here;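 also: phosphodiesterase inhibitor Ro 20-1724 added with compounds to block cAMP breakdown; potency is read from the fitted curve at half-maximal effect; nearly all actives have a fitted effect of over 60% in size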
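Cells in DMEM/10% FBS with G418 were pretreated with compounds in DMSO plus […] (300 uM stock) for 30 min at 37C. cAMP was measured by HTRF (cAMP-d2 plus anti-cAMP antibody-K) after 30 min at room temperature.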
RXFP1 antag: RXFP1 (human) relaxin receptor antagonism | Q9HBX9 | HEK293-RXFP1, relaxin-stimulated cAMP HTRF, 30 min; stronger effect = lower value | activity change, negative = inhibition, % at 57.5 µM | hit rate 0.59% among 350,000 | AID 1259400;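 active = activity change of -60% or lower, but not beyond a set lower limit; inconclusive = change between -60% and -40%, or beyond the set limit; inactive = change above -40%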; also: % is scaled to controls: 0 for no effect and ±100 for the full control effect
RXFP1 agonist: RXFP1 (human) receptor agonism | hit rate 0.3% among 370,000 | Potency, µM (titrated, usually from 57.5 µM), for the others: at the top dose activation, most hits filed as activators | HEK293T-RXFP1 cAMP TR-FRET, 30 min; response scale: percent of porcine relaxin response, buffer zero; also: potency is read from the fitted curve at half-maximal effect; % is scaled to controls: 0 for no effect and ±100 for the full control effect; nearly all actives have a fitted effect of over 60% in size
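HEK293T cells stably expressing RXFP1 were pretreated with the PDE4 inhibitor Ro 20174, exposed to compounds for 30 min at 37C, lysed, and cAMP was read by TR-FRET. Data normalized to buffer (basal) and 29 nM porcine relaxin (100%).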
An asterisk follows results filed as active; ? = inconclusive; · = not tested or not shown; [ ] = remark or other dose. A selection: hits, their analogues and other compounds. The true share with any hit is near 1%. Unless noted, calls follow the shape of the dose curve; as a rule, active = well fitted curve in the direction sought with a large enough effect; inconclusive = small, poorly fitted or top-dose-only effect, or another doubt; inactive = no such curve, though single readings can be large; an effect the other way counts as inactive or inconclusive.

1	O=C(CSc1ncn[nH]1)N1N=C2/C(=C/c3ccccc3)CCCC2C1c1ccccc1 (stereo not drawn)
2	Cc1cccc(-n2c(=O)c3c(c4cc(C)ccc4n3C)n(CC(=O)NCCC3=CCCCC3)c2=O)c1
3	COC(=O)C(Nc1ccccc1Cl)(c1cc(C)c(O)c(C)c1)C(F)(F)F (stereo not drawn)
4	CC(NCC(O)COCCC12CC3CC(CC(C3)C1)C2)c1ccccc1 (stereo not drawn)
5	O=C1/C(=C\c2ccncc2)CCc2ccccc21
6	Cn1cccc1/C=C1\Cc2ccccc2C1=O
7	Cn1cccc1/C=C1\CCc2ccccc2C1=O
8	CCOC(=O)Cn1cccc1-c1nc(-c2ccc(OC)cc2)c(-c2ccc(OC)cc2)s1

assay / compound | 1 | 2 | 3 | 4 | 5 | 6 | 7 | 8
miR-21 reporter | 11% | 0% | 16% | ? | · | -56% | 16% | ·
gsp antagonist | 35µM* | · | -8% | 1% | -3% | -21% | -13% | ·
Luc counter | · | · | 18% | 2% | · | 11µM* | 10µM* | ·
gsp ag | ? | · | ? | ? | ? | 24% | -7%[15.4 µM] | ·
RXFP1 antag | -15 | · | -64* | -62* | · | 1 | 11 | -20
RXFP1 agonist | 0% | 0% | 8% | 1% | 0% | 0% | 1% | ·

Some of these compounds in order of SMILES length, ascending:
6	Cn1cccc1/C=C1\Cc2ccccc2C1=O
5	O=C1/C(=C\c2ccncc2)CCc2ccccc21
3	COC(=O)C(Nc1ccccc1Cl)(c1cc(C)c(O)c(C)c1)C(F)(F)F (stereo not drawn)
1	O=C(CSc1ncn[nH]1)N1N=C2/C(=C/c3ccccc3)CCCC2C1c1ccccc1 (stereo not drawn)

assay / compound | 6 | 5 | 3 | 1
miR-21 reporter | -56% | · | 16% | 11%
gsp antagonist | -21% | -3% | -8% | 35µM*
Luc counter | 11µM* | · | 18% | ·
gsp ag | 24% | ? | ? | ?
RXFP1 antag | 1 | · | -64* | -15
RXFP1 agonist | 0% | 0% | 8% | 0%

Further records follow:
9	COc1ccc(-c2sc3ccccc3c2/C=C/c2ccncc2)cc1
10	Cc1cccc(C)c1NC(=O)CN(C)C(=O)CCc1nc2sc3c(c2c(=O)[nH]1)CCCC3
11	CN(CC(=O)Nc1ccc(F)c(F)c1F)C(=O)CCc1nc2sc3c(c2c(=O)[nH]1)CCCC3
12	Cn1nc(C(=O)NCCc2ccc(Cl)cc2)c2c1-c1ccccc1SC2
13	O=C(CCOCCOCCOCCOCCC(=O)Nc1c(I)cc(I)c(C(=O)O)c1I)Nc1c(I)cc(I)c(C(=O)O)c1I
14	CC/C(=N\NC(=O)c1nnn(-c2nonc2N)c1CN(C)c1ccccc1)c1ccccc1
15	CN1CCN(Cc2c(O)ccc3c(=O)c(Oc4ccccc4Cl)c(C(F)(F)F)oc23)CC1
16	CCN1CCN(Cc2c(O)ccc3c(=O)c(Oc4ccccc4Cl)c(C(F)(F)F)oc23)CC1

assay / compound | 9 | 10 | 11 | 12 | 13 | 14 | 15 | 16
miR-21 reporter | · | · | · | -11% | · | -3% | -6% | -2%
gsp antagonist | 11µM* | -15% | -5% | · | · | 1% | -9% | ·
Luc counter | · | · | · | · | · | · | -2% | ·
gsp ag | · | -8% | 18%[15.4 µM] | · | · | -5% | -42% | ·
RXFP1 antag | · | -6 | -63* | 14 | -9 | -102* | -31 | ·
RXFP1 agonist | · | 2% | 3% | 1% | · | 3% | 2% | 32µM*

17	N/C(=N/OC(=O)c1ccccc1F)c1nonc1N
18	Fc1ccc(-c2nc3n(n2)Cc2ccccc2-3)cc1
19	CCn1c(C)nc2cc(-c3nc4n(n3)Cc3ccccc3-4)ccc21
20	Cc1ccc(-c2nc3n(n2)Cc2ccccc2-3)cc1
21	CCn1c(C)nc2cc(C#N)ccc21
22	CCOC(=O)Cn1c(=O)n(-c2cccc(Cl)c2)c2nc(-c3ccccc3Cl)nc(C(N)=O)c21
23	O=C(c1ccncc1)N1CCC2(CC1)CN(c1ccccn1)C2
24	O=C(CSc1nc2c(c(=O)[nH]1)CCC2)Nc1ccccc1F

assay / compound | 17 | 18 | 19 | 20 | 21 | 22 | 23 | 24
miR-21 reporter | -38% | -2% | ? | 12% | -10% | 1% | · | 12%
gsp antagonist | -3% | -5% | -7% | -8% | 3% | · | · | ·
Luc counter | 11µM* | 11µM* | 2.2µM* | ? | -1% | · | -4% | ·
gsp ag | ? | 3% | 16% | 12%[15.4 µM] | -5%[15.4 µM] | · | · | ·
RXFP1 antag | -3 | -5 | -18 | -12 | -6 | · | · | -10
RXFP1 agonist | -1% | 0% | 2% | 2% | -1% | -2% | · | -3%

25	CC1CCN(C(=O)Cn2c(SCC(=O)Nc3ccc(F)cc3)nc3ccccc32)CC1
26	O=C(NCC1CC1(Cl)Cl)Nc1ccc(Cl)c(Cl)c1 (stereo not drawn)
27	C[N+]1(C)CCc2cc3c(cc2[C@@H]1[C@@H]1C(=O)Oc2c1ccc1c2OCO1)OCO3
28	O=C1c2ccccc2-c2nnc(-c3ccc(F)cc3)cc21
29	Cc1ccccc1-c1cc2c(nn1)-c1ccccc1C2=O
30	O=C1c2ccccc2-c2nnc(-c3ccc(O)cc3)cc21
31	COc1ccc(CCC(=O)NCc2ccc3c(c2)CCN3C(=O)c2cccc(C)c2)cc1
32	COc1ccc(CCC(=O)NCc2ccc3c(c2)CCN3C(=O)c2ccccc2)cc1

assay / compound | 25 | 26 | 27 | 28 | 29 | 30 | 31 | 32
miR-21 reporter | 0% | 20% | · | -35% | -24% | 24% | 4% | -1%
gsp antagonist | · | ? | · | 9% | -2% | 4% | · | ·
Luc counter | · | · | 1% | 5µM* | 5µM* | 11µM* | · | ·
gsp ag | · | -7% | · | 0% | 16%[15.4 µM] | 5% | · | ·
RXFP1 antag | -4 | -67* | · | 15 | 13 | -10 | -96* | -21
RXFP1 agonist | 2% | -3% | · | 0% | 0% | 0% | 1% | 1%

33	COC(=O)C1=C(C(=O)OC)[C@@H]2N(C)c3ccc(OC)cc3[C@@]23C[C@@H](C(=O)OC)N(C(C)=O)C3=N1
34	COc1ccc(-c2cc(C(F)(F)F)nc(N)n2)cc1
35	Nc1nc2ccccc2n1Cc1ccc(F)cc1
36	CCOc1cccc(OCCCn2c(-c3ccc(Br)cc3)nc3ccccc3c2=O)c1
37	COc1cc2c(cc1NC(=O)COc1ccc(Br)cc1C)oc1ccccc12
38	COc1ccc(-n2c(=S)[nH]c3cc(C(=O)NCc4ccc(F)cc4)ccc3c2=O)c(OC)c1
39	COc1ccc(-n2c(=S)[nH]c3cc(C(=O)Nc4ccc(F)cc4)ccc3c2=O)c(OC)c1
40	COc1ccc(-n2c(=S)[nH]c3cc(C(=O)Nc4ccccc4OC)ccc3c2=O)c(OC)c1

assay / compound | 33 | 34 | 35 | 36 | 37 | 38 | 39 | 40
miR-21 reporter | · | -29% | · | 0% | -1% | 13% | 23% | 4%
gsp antagonist | · | -7% | · | · | · | 25µM* | 40µM* | 28µM*
Luc counter | -9%[7.66 µM] | 4% | · | · | · | · | · | ·
gsp ag | · | -54%[15.4 µM] | · | · | · | 7%[15.4 µM] | 5% | 4%[15.4 µM]
RXFP1 antag | · | -61* | -7 | -3 | -16 | -17 | ? | -19
RXFP1 agonist | · | -1% | · | 6% | 5% | 0% | 3% | -1%

41	COc1ccc(-n2c(=O)c3ccc(C(=O)NCc4ccc(C)cc4)cc3n(CC(=O)Nc3ccc(F)cc3)c2=O)cc1
42	COc1ccc(OC)c(CNCc2c(C(=O)O)n(Cc3cccc(F)c3)c3cc(OC)ccc23)c1
43	Cc1cc(F)ccc1Nc1nc2ccc(Cl)cc2n2cnnc12
44	CCn1c(=O)c(-c2cc(=O)[nH][nH]2)c(O)c2ccccc21
45	O=c1cc(-c2c(O)c3ccccc3n(Cc3ccccc3)c2=O)[nH][nH]1
46	O=C(NCc1ccc(Cl)cc1)C1CCN(S(=O)(=O)c2ccc(N3CCCC3=O)cc2)CC1
47	CCCCNC(=O)c1cnc2sc(N3CCCCCC3)nn2c1=O
48	CC1(C)Cc2ccccc2-c2nnc(SCC(=O)N3CCN(c4ccccc4)CC3)n21
49	Cc1nn(C(C)C)c(C)c1CN1CCC(C(=O)Nc2cccc(-c3cccc(F)c3)c2)CC1

assay / compound | 41 | 42 | 43 | 44 | 45 | 46 | 47 | 48 | 49
miR-21 reporter | -19% | -5% | -13% | 1% | -4% | 15% | -12% | 29% | 12%
gsp antagonist | · | · | · | -11% | -16% | -11% | · | 35µM* | -1%
Luc counter | · | · | · | 5% | 5% | · | · | -6% | ·
gsp ag | · | · | · | 3% | 0%[15.4 µM] | 11% | · | 19% | 11%
RXFP1 antag | · | -4 | -6 | 7 | -84* | -66* | ? | 0 | -82*
RXFP1 agonist | 32µM* | 0% | 1% | 2% | 1% | 4% | -1% | 5% | 0%
